According to PubChem BioAssay AID652105 (National Center for Advancing Translational Sciences (NCATS), 2013):
This is a selection; strong and weak results do not stand in their true shares. Activity calls are given as the source filed them. How the source made its calls: active means max response of -50% or lower; inconclusive means between -30% and -50%; inactive means -30% or higher.

Protein sequences, listed by entry. Tags and fused reporters are not part of them.
UniProt P48426, whole entry: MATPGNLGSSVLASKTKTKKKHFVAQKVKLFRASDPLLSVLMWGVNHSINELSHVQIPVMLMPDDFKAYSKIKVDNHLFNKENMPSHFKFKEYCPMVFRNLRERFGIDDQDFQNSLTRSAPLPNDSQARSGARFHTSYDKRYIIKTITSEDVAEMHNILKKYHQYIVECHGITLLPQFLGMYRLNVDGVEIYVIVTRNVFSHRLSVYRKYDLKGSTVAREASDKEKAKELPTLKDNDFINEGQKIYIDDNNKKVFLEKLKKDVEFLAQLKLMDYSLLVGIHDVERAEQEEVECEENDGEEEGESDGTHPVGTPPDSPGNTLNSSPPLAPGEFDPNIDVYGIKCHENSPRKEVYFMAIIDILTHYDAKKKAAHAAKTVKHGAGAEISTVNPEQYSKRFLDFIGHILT

The molecules below were run against Phosphatidylinositol 5-phosphate 4-kinase type-2 alpha (Homo sapiens) (UniProt P48426) (assay: qHTS for Inhibitors of phosphatidylinositol 5-phosphate 4-kinase (PI5P4K)). Settings: PI5P4Kalpha enzyme, ADP-Glo luminescence, 60 min; stronger effect = lower value.
Excerpt: In addition to finding PI5P, we discovered the type II phosphatidylinositol 5-phosphate 4-kinase (PI5P4K) family (alpha, beta, gamma isoforms) that catalyze the conversion of PI5P to PI(4,5)P2. Alternatively, PI(4,5)P2 can also be synthesized through phosphatidylinositol-4-phosphate (PI4P) by the type I phosphatidylinositol 4-phosphate 5-kinases (PI4P5K). These PI5P4K enzymes therefore represent one way by which cells can regulate endogenous PI5P levels and play important roles in insulin signaling and in stress responses.
This proposal aims to identify and optimize specific modulators of human PI5P4K, phosphatidylinositol-5-phosphate 4-kinase (Type II PIPK), a family of kinases that regulate AKT signaling and tumor cell growth. In this project we aim to identify inhibitors of human PI5P4K using a quantitative high-throughput screening approach against the MLSMR containing ~400,000 small molecules.
NIH Chemical Genomics Center [NCGC] […]
2 microL of PI5P4Kalpha/substrate buffer (columns 1-2, 5-48) are dispensed into Greiner white solid bottom 1536-well assay plates; column 3 receives only PI5P4Kalpha buffer as 0x substrate controls; column 4 receives only substrate buffer as 0x PI5P4Kalpha controls. […] They are then transferred to a ViewLux high-throughput CCD imager (PerkinElmer) wherein single end-point measurements of luminescence are acquired using a clear filter.
Further: value at the top dose of about 77 µM.
On the % scale 0 is the no-effect control and ±100 the full control effect.

**Q.** Which max response does the source give for `CN(C)CCOC(=O)C(O)(c1ccccc1)C1CCCCC1` (stereo unspecified) here?
**A.** inactive: -1.21%
